Results reported in publication PMC3773436 (Evidence-based Complementary and Alternative Medicine : eCAM, 2013).

By UniProt entry, the sequences of proteins in these tests, tags left out. Where a name states a change or a piece, a line headed by the entry shows the natural chain unless it says otherwise.
UniProt P22411: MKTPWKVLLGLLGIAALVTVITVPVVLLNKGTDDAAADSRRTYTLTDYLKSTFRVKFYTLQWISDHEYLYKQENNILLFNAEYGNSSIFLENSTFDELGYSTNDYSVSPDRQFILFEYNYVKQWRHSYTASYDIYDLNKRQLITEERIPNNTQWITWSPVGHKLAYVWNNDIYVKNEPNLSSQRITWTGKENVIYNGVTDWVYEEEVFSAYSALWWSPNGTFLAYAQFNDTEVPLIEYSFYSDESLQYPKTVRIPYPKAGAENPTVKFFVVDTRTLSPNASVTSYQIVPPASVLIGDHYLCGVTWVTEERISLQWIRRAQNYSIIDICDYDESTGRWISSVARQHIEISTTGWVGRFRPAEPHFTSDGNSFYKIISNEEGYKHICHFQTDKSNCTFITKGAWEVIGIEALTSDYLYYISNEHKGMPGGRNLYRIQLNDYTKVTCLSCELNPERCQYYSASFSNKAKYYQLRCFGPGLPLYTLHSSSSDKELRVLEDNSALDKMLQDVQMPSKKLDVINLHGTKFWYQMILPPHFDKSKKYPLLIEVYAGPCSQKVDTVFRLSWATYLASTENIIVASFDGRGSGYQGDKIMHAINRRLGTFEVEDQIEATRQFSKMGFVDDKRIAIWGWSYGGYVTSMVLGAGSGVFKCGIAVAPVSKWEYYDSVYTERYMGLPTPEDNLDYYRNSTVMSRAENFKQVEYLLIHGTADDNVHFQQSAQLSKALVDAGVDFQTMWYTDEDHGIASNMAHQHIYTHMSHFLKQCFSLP

Molecular target: T1, Porcine kidney DPP-IV (Sus scrofa, UniProt P22411)
T1 construct: purchased Sigma-Aldrich; host or cells: porcine kidney (tissue-derived, as named)
Assay: DPP-IV Glo Protease Assay (luminescence), DPP-IV inhibition
Type: biochemical
Conditions: pure compounds, concentration based on molecular mass; means ± SEM
From the text: All solvents used for phenolic extraction were HPLC-grade and were purchased from Fisher Scientific (Pittsburg, PA). Amberlite XAD-7 was purchased from Sigma-Aldrich (St. Louis, MO). Sephadex LH-20 was purchased from GE Life Sciences (Buckinghamshire, UK). […] DPP-IV Glo^TM Protease Assay kits were purchased from Promega (Madison, WI). […] All other reagents were of analytical grade.
Measurement of the activity and potential inhibition of DPP-IV, a type II membrane glycoprotein, was done using the DPP-IV Glo^TM Protease Assay following the manufacture's protocol (Promega, Madison, WI). Briefly, 50 μL of DPP-IV Glo^TM reagent was added to a white-walled 96-well plate containing 50 μL of blank, positive control, or treatment. The blank contained the vehicle only while positive control contained the vehicle and purified DPP-IV enzyme (at a final concentration of 1 ng/mL). […] The content of the wells was gently mixed using an Ultra Microplate Reader (Biotek Instruments, Winooski, VT) at medium intensity for 4 s. […] This signal in RLU was measured after 30 min in the Ultra Microplate Reader and then compared to the blank. […] IC50 values were calculated based on the molecular mass of each compound or C3G as the equivalent for ANC-enriched fractions.
Data were expressed as means of independent duplicates with at least three replicates. […]

IC50: 4.21 µM
Compound: CC[C@H](C)[C@H](N)C(=O)N1CCC[C@H]1C(=O)N[C@H](C(=O)O)[C@@H](C)CC [Diprotin A, Ile-Pro-Ile, reference compound]
